Experimental data as given in publication PMC11904993, “Humanized Candida and NanoBiT Assays Expedite Discovery of Bdf1 Bromodomain Inhibitors With Antifungal Potential” (Advanced Science, 2025).
“And” between values parts separate entries of the source, which are not always exact repeats. Identical values can stand only once. Like-named read-outs stand apart in the source and are kept apart here.

Legend:
[1] = target: human Brd4 BD1 (Homo sapiens, UniProt O60885); experiment: HTRF assay, inhibition of H4ac4 peptide binding; details: for pIC50 hBrd4 BD1: Fig 1D/2A original data, single experiments Exp1-3
[2] = target: human Brd4 BD2 (Homo sapiens, UniProt O60885); experiment: HTRF assay, inhibition of H4ac4 peptide binding; details: for pIC50 hBrd4 BD2: Fig 1D/2A original data, single experiments Exp1-3; for %HTRF Signal: Exp1-3, listed as cmpd 29
[3] = read-out: IC50 Brd4 BD1, Table S3, estimate, preliminary single-replicate HTRF assay
[4] = read-out: IC50 Brd4 BD2, Table S3, estimate, preliminary single-replicate HTRF assay
[5] = hBrd4 BD1, individual experiments Exp1-3, Table S4
[6] = hBrd4 BD2, individual experiments Exp1-3, Table S4
[7] = read-out: IC50 hBrd4 BD2, Table S4, means ± SD, n=3

SMILES	IC50 [1, 3] [µM]	IC50 [2, 4] [µM]	IC50 [1, 5]	IC50 [2, 6]	other results
Cn1nccc1C(=O)NCc1ccc(-c2nc(-c3ccc(F)cc3)no2)s1	> 20	> 20			
COC(=O)c1ccc(NC(=O)C2CC(=O)N(c3ccc4c(c3)CCN4C(C)=O)C2)cc1 (centres unmarked)	> 20		> 100 µM	> 20 µM	pIC50 hBrd4 BD1 [1]: ≤ 4
Cc1nnc(-c2ccc3ccn(CC(=O)Nc4cccc(Cl)c4)c3c2)o1	> 20				
CCC(=O)Nc1ccc(CCc2nc3ccc(C(=O)NCc4ccc(C)o4)cc3[nH]2)cc1	> 20				
CCCN(CC1CC1)C(=O)C1C(c2cc(OC)c(OC)c(OC)c2)c2cc3c(cc2C(O)C1CO)OCO3 (centres unmarked)			> 20 µM	> 20 µM	pIC50 hBrd4 BD1 [1]: ≤ 4
CC(=O)Nc1ccc(CCc2nc3ccc(C(=O)NCc4ccc5c(c4)OCO5)cc3[nH]2)cc1	> 20	> 20			
CCC(C)NC(=O)Nc1cc2c(cc1Oc1ccccc1)n(C)c(=O)n2C (centres unmarked)	13	2.8	20 µM and 19.3 µM and 25.9 µM	2.81 µM and 3.55 µM and 2.43 µM	pIC50 hBrd4 BD1 [1]: 4.586 and 4.698 and 4.714; pIC50 hBrd4 BD2 [2]: 5.551 and 5.450 and 5.614; IC50 [2, 7]: 2.93 µM
COc1ccc(-c2nc3cnccn3c2Nc2ccc(Br)cc2)cc1OC	12	> 20			
CC(=O)Nc1ccc(CCc2nc3ccc(C(=O)NCc4ccc(C)o4)cc3[nH]2)cc1	> 20				
CCc1nn2c(CNC(=O)c3cccc(OC)c3)c(-c3ccccc3)nc2s1		> 20			
COc1cc2nc(C(=O)N3CCCCC3)cc(Nc3ccc(Br)cc3)c2cc1OC	> 20	> 20	> 100 µM	21.8 µM and > 100 µM and 14.1 µM	
COc1nccnc1NC1CCN(C(=O)c2ccncc2)CC1		> 20			
COCCN1C(=O)c2ccccc2C(C(=O)Nc2cccc(NC(C)=O)c2)C12CCCCC2 (centres unmarked)	> 20	> 20			
CC(=O)c1cccc(NC(=O)Cn2cccc2-c2nc(-c3ccc4c(c3)OCO4)no2)c1	> 20				
COC(=O)c1ccccc1Nc1c(-c2ccc(O)cc2)nc2cnccn12	> 20	> 20			
CC(=O)Nc1ccc(Cc2nc(-c3cccc(-c4ccn[nH]4)c3)no2)cc1	> 20				
COc1cccc(NC(=O)Cn2ccc3ccc(-c4nnc(C)o4)cc32)c1	> 20		31.7 µM and > 100 µM (2×)	> 20 µM	
CC(=O)N1CCc2[nH]c3ccc(C(=O)Nc4ccc(N5CCOCC5)cc4)cc3c2C1			2.94 µM and 2.33 µM and 2.91 µM	0.75 µM and 0.38 µM	pIC50 hBrd4 BD1 [1]: 5.537 and 5.532 and 5.633; %HTRF Signal ([1]; hBrd4 BD1, compound 512 nM, Exp1-3, listed as cmpd 29): 81.99% and 82.87% and 83.51%; pIC50 hBrd4 BD2 [2]: 6.360 and 6.127 and 6.425; %HTRF Signal ([2]; hBrd4 BD2, compound 32.77 nM): 92.24% and 93.64%; %HTRF Signal ([2]; hBrd4 BD2, compound 81.92 nM): 72.83% and 79.06% and 86.06%; %HTRF Signal ([2]; hBrd4 BD2, compound 512 nM): 58.18% and 33.79% and 37.53%; IC50 [2, 7]: 0.52 µM
